Results on one sequence are retold here after patent US20160115200A1, “New Use for JNK Inhibitor Molecules for Treatment of Various Diseases” (XIGEN INFLAMMATION LTD., priority 2013, published 2016).

The data set in a line: Stability (half-life) of JNK inhibitors in human serum, UPLC-MS. Conditions: human serum (50% in FIG. 5; 10 and 50% in PBS 1x), 0.1 mM peptide. On the procedure:
The experiment was performed as described by Tugyi et al. (Proc Natl Acad Sci USA, 2005, 413-418). The remaining intact peptide was quantified by UPLC-MS.

In the case of “GRKKRRQRRRPPRPKRPTTLNLFPQVPRSQD [SEQ ID NO: 196]”, the “time until totally degraded into amino acids residues” value was not above 6 h.
